According to US10464925B2:

What was measured:
[1] = target: BRD4 (Homo sapiens, UniProt O60885); assay: BRD4 AlphaScreen; settings: IC50 (nM) BRD4
[2] = target: CRBN-DDB1 (Homo sapiens, UniProt Q96SW2); assay: CRBN-DDB1 Ligand-Displacement AlphaScreen Assay (thalidomide competition);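 note: streptavidin donor and nickel chelate acceptor bead proximity signal after 30 min incubation, normalized with no-protein background as 0% and DMSO wells as 100% activity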

Row | SMILES | IC50 [1] | IC50 [2] | IC50 ([2]; biotin-thalidomide competition)
1 | Cc1sc2c(c1C)C(c1ccc(Cl)cc1)=N[C@@H](CC(=O)NCCCCCCNC(=O)c1ccc3c(c1)C(=O)N(C1CCC(=O)NC1=O)C3=O)c1nnc(C)n1-2 (some centres unmarked) [dBET15] | 31 nM | 40.4 nM | –
2 | Cc1sc2c(c1C)C(c1ccc(Cl)cc1)=N[C@@H](CC(=O)NCCCOCCOCCOCCCNC(=O)COc1cccc3c1C(=O)N(C1CCC(=O)NC1=O)C3=O)c1nnc(C)n1-2 (some centres unmarked) [dBET9] | – | – | 14.8 nM
3 | Cc1sc2c(c1C)C(c1ccc(Cl)cc1)=N[C@@H](CC(=O)NCCNC(=O)COc1cccc3c1C(=O)N(C1CCC(=O)NC1=O)C3=O)c1nnc(C)n1-2 (some centres unmarked) [dBET3] | 32 nM | – | 10.4 nM
4 | Cc1sc2c(c1C)C(c1ccc(Cl)cc1)=N[C@@H](CC(=O)NCCCCCCNC(=O)COc1cccc3c1C(=O)N(C1CCC(=O)NC1=O)C3=O)c1nnc(C)n1-2 (some centres unmarked) [dBET5] | 33 nM | – | 217 nM
5 | CC[C@@H]1C(=O)N(C)c2cnc(Nc3ccc(C(=O)NCCCCCCNC(=O)COc4cccc5c4C(=O)N(C4CCC(=O)NC4=O)C5=O)cc3OC)nc2N1C1CCCC1 (some centres unmarked) [dBET7] | 161 nM | – | –

Like-named read-outs stand apart in the source and are kept apart here.
